Source: ChEMBL document CHEMBL1138205, “Novel heterobivalent tacrine derivatives as cholinesterase inhibitors with notable selectivity toward butyrylcholinesterase” (J Med Chem, 2006)

The chains behind the UniProt entries cited, without tags or fusion partners. Where a name states a change or a piece, a line headed by the entry shows the natural chain unless it says otherwise.
UniProt O42275: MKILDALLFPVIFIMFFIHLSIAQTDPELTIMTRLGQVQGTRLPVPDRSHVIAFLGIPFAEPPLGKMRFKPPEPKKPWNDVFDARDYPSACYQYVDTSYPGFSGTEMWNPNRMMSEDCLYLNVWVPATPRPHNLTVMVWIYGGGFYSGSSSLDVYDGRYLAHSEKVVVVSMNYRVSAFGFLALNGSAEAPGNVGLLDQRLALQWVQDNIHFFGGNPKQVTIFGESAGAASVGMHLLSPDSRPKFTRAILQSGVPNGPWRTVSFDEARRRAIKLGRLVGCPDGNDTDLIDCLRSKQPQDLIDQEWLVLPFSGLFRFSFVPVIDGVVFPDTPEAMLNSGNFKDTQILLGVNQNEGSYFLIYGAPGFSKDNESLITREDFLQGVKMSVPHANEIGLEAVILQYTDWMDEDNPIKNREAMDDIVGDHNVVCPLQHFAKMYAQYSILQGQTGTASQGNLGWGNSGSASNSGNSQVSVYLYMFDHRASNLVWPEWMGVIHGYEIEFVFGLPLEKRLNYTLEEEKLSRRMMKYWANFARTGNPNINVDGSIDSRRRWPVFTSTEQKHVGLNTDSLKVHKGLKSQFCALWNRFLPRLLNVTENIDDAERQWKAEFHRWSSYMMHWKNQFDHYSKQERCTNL

Target: Acetylcholinesterase (Electrophorus electricus, UniProt O42275)
Assay: Inhibition of Electrophorus electricus AChE
Procedure, shortened: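 Ellman-type spectrophotometric assay at 412 nm in 100 mM sodium phosphate, 100 mM NaCl, pH 7.3, with DTNB. Enzymes: E. electricus AChE (soluble G4), recombinant T. californica AChE (Pichia pastoris, G4), recombinant human AChE (HEK 293, G2/G4), human plasma BChE (G4). Enzyme (~3 U/mL stock) and inhibitor preincubated 15 min at 25 °C. Acetylthiocholine (AChE) or butyrylthiocholine (BChE) then started the reaction. IC50 in duplicate from ≥4 inhibitor concentrations.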

Compound: COc1cc(CCC(=O)NNc2c3c(nc4ccccc24)CCCC3)cc(OC)c1OC
- IC50: 294 nM
